Experimental data reported in paper PMC7171691, “Chemical Synthesis, Efficacy, and Safety of Antimalarial Hybrid Drug Comprising of Sarcosine and Aniline Pharmacophores as Scaffolds” (Journal of Tropical Medicine, 2020).

Test: Solubility observations
Format: physicochemical

Which “Solubility in dimethyl sulfoxide (DMSO)” value (DMSO) does the source give for 3-chloro-4-(4-chlorophenoxy) aniline here?
The value was “soluble”.

And the “Solubility in Tween 80” value (Tween 80)?
Its value is “slightly soluble”.

What about the Solubility in water (water) of the same substance?
Its Solubility in water is “very low; also recorded: low water-soluble”.

Entries after “also recorded” stand apart in the source; their conditions may differ.
